Assay results taken from patent publication US20050075361A1 (priority 2002, published 2005).

Tested on: male Sprague-Dawley rats
Details: for Analgesic duration: IM, plantar test

## Buprenorphine enanthate
Dose 0.6 μM/kg
  Analgesic duration: 72 h

## Buprenorphine benzoate
Dose 0.6 μM/kg
  Analgesic duration: 72 h

## Buprenorphine propionate
Different doses 0.6, 6, 60 μM/kg in oil, intramuscular injection
  duration of analgesic action: 48 to 60 h
Dose 0.6 μM/kg
  Analgesic duration: 48 h
Dose 6 μM/kg
  Analgesic duration: 54 h
Dose 60 μM/kg
  Analgesic duration: 54 h

## Buprenorphine pivalate
Dose 0.6 μM/kg
  Analgesic duration: 48 h

Like-named read-outs stand apart in the source and are kept apart here. Only a part of the results on these compounds is given; other tests are left out.
